Assay [1] has as its target T1, human VR1 (Homo sapiens, UniProt Q8NER1). Put plainly: pH-based assay of VR1 inhibition (FLIPR calcium influx, HEK293-EcR cells expressing human VR1). Conditions: activation at pH 5.5, HEK293-EcR cells expressing human VR1, n=4. The method, then: (§1) Human VR1 Cloning: Human spinal cord RNA (commercially available from Clontech, Palo Alto, Calif.) was used. Reverse transcription was conducted on 1.0 μg total RNA using Thermoscript Reverse Transcriptase (commercially available from Invitrogen) and oligo dT primers as detailed in its product description. Reverse transcription reactions were incubated at 55° C. for 1 h, heat-inactivated at 85° C. for 5 min, and RNase H-treated at 37° C. for 20 min.
(§2) Human VR1 cDNA sequence was obtained by comparison of the human genomic sequence, prior to annotation, to the published rat sequence. Intron sequences were removed and flanking exonic sequences were joined to generate the hypothetical human cDNA. Primers flanking the coding region of human VR1 were designed as follows: forward primer, […]; and reverse primer, […]. […]
(§3) Generation of Inducible Cell Lines: Unless noted otherwise, cell culture reagents were purchased from Life Technologies of Rockville, Md. […] On the day of assay, cells were loaded with Fluo-4 (a calcium-sensitive dye that is commercially available from Molecular Probes) and CAP-mediated calcium influx was measured using a FLIPR as described below. […]

Chains of the proteins cited; added tags and fusions are not shown.
UniProt Q8NER1, whole entry: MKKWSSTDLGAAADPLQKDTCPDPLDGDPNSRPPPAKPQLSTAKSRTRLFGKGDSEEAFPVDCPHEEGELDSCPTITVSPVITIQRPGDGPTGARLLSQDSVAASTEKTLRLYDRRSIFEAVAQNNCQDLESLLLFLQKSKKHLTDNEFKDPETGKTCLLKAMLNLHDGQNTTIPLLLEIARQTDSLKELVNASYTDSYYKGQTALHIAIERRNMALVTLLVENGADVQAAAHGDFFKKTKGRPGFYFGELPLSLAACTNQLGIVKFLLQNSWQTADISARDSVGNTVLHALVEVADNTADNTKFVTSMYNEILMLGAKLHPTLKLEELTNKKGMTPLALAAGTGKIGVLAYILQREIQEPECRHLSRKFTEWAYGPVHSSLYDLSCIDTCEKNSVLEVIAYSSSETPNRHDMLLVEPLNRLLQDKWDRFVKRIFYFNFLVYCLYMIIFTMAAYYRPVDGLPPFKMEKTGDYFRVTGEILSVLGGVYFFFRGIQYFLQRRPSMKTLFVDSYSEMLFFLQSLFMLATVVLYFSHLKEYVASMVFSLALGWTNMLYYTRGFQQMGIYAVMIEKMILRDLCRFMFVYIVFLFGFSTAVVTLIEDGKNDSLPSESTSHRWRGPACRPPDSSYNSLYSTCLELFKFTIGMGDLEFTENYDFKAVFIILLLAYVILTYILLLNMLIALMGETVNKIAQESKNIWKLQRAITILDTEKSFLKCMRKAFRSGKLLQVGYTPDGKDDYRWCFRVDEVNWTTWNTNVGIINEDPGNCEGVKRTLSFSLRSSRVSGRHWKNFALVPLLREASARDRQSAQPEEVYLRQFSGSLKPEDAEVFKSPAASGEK

In assay [2] the target is T1, human VR1. The assay is described as follows: Capsaicin-based assay of VR1 inhibition (FLIPR calcium influx, HEK293-EcR cells expressing human VR1). Conditions: activation by capsaicin (400 nM), HEK293-EcR cells expressing human VR1, n=3. Here is the method:
as §1, §2, §3

For the compound `CC(C)(C)c1ccc(NC(=C[N+](=O)[O-])N2CCN(c3ncccc3Cl)CC2)cc1`, the 50% inhibitory concentration (IC50) (commonly the point on the concentration scale where inhibition reaches its midpoint) at human VR1 [1] was determined as 291 nM; on human VR1 [2] it was 92.2 nM.
